Results as given in ChEMBL document CHEMBL1133167, “Synthesis and opioid receptor affinity of morphinan and benzomorphan derivatives: mixed kappa agonists and mu agonists/antagonists as potential pharmacotherapeutics for cocaine dependence” (J Med Chem, 2000).

Species: Cavia porcellus
Test: Selectivity kappa/delta

## CN(C(=O)Cc1ccc(Cl)c(Cl)c1)C1CCCCC1N1CCCC1 (stereo unspecified)
  Selectivity: 6900
